Experimental data published in patent US9302989B2 (priority 2010, dated 2016).

Chains of the proteins cited; added tags and fusions are not shown. Lines headed by an entry give the natural chain unless they say otherwise; changes in a name come on top.
UniProt P43490: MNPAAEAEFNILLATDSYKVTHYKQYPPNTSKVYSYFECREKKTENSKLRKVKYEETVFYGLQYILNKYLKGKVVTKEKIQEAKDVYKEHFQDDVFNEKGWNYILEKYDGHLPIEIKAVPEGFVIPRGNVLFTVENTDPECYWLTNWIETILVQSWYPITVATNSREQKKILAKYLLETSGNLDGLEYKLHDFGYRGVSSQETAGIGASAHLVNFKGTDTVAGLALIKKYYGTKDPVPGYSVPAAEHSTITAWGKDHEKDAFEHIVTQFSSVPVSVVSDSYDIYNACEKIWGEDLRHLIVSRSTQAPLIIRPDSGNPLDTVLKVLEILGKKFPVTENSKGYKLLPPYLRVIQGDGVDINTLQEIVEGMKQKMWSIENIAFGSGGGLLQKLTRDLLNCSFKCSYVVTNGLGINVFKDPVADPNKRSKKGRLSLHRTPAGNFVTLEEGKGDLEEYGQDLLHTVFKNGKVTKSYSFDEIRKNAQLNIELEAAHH

Target: NAMPT (Homo sapiens (Human), UniProt P43490)
Settings: read-out: TR-FRET Binding IC50 (μM) probe 1

| SMILES | IC50 [µM] |
| --- | --- |
| O=C(Nc1ccc(C2=CCN(C(=O)c3ccccc3)CC2)nc1)N1Cc2ccccc2C1 [Example 335, N-(1′-benzoyl-1′,2′,3′,6′-tetrahydro-2,4′-bipyridin-5-yl)-1,3-dihydro-2H-isoindole-2-carboxamide] | 0.00669 |
| O=C(Nc1ccc(N2CCN(C(=O)c3ccccc3)CC2)cc1)N1Cc2ccccc2C1 [Example 336, N-[4-(4-benzoylpiperazin-1-yl)phenyl]-1,3-dihydro-2H-isoindole-2-carboxamide] | 0.0259 |
| CC(C)S(=O)(=O)N1CCN(c2ccc(NC(=O)N3Cc4ccccc4C3)cc2)CC1 [Example 337, N-{4-[4-(isopropylsulfonyl)piperazin-1-yl]phenyl}-1,3-dihydro-2H-isoindole-2-carboxamide] | 0.0261 |
| O=C(Nc1ccc(N2CCN(S(=O)(=O)c3ccccc3)CC2)cc1)N1Cc2ccccc2C1 [Example 338, N-{4-[4-(phenylsulfonyl)piperazin-1-yl]phenyl}-1,3-dihydro-2H-isoindole-2-carboxamide] | 0.0785 |
| O=C(NC1CCN(c2ccc(NC(=O)N3Cc4ccccc4C3)cc2)C1)c1ccccc1 (stereo not shown) [Example 339, N-{4-[3-(benzoylamino)pyrrolidin-1-yl]phenyl}-1,3-dihydro-2H-isoindole-2-carboxamide] | 0.315 |
| CC(C)(C)OC(=O)N1CCN(c2ccc(NC(=O)N3Cc4ccccc4C3)cc2)CC1 [Example 341, tert-butyl 4-{4-[(1,3-dihydro-2H-isoindol-2-ylcarbonyl)amino]phenyl}piperazine-1-carboxylate] | 0.101 |
| CCC(=O)N1CCN(c2ccc(NC(=O)N3Cc4ccccc4C3)cc2)CC1 [Example 342, N-[4-(4-propionylpiperazin-1-yl)phenyl]-1,3-dihydro-2H-isoindole-2-carboxamide] | 0.103 |
| O=C(Nc1ccc(N2CCN(C(=O)C3CC3)CC2)cc1)N1Cc2ccccc2C1 [Example 343, N-{4-[4-(cyclopropylcarbonyl)piperazin-1-yl]phenyl}-1,3-dihydro-2H-isoindole-2-carboxamide] | 0.0791 |
| CCCC(=O)N1Cc2ccc(NC(=O)N3Cc4ccccc4C3)cc2C1 [Example 344, N-(2-butyryl-2,3-dihydro-1H-isoindol-5-yl)-1,3-dihydro-2H-isoindole-2-carboxamide] | 0.216 |
| CC(C)C(=O)N1Cc2ccc(NC(=O)N3Cc4ccccc4C3)cc2C1 [Example 345, N-(2-isobutyryl-2,3-dihydro-1H-isoindol-5-yl)-1,3-dihydro-2H-isoindole-2-carboxamide] | 0.84 |
| O=C(Nc1ccc2c(c1)CN(C(=O)c1ccccc1)C2)N1Cc2ccccc2C1 [Example 346, N-(2-benzoyl-2,3-dihydro-1H-isoindol-5-yl)-1,3-dihydro-2H-isoindole-2-carboxamide] | 0.0498 |
| CC(C)CCN1Cc2ccc(NC(=O)N3Cc4ccccc4C3)cc2C1 [Example 347, N-[2-(3-methylbutyl)-2,3-dihydro-1H-isoindol-5-yl]-1,3-dihydro-2H-isoindole-2-carboxamide] | 0.297 |
| CCCCCCOc1ccc(NC(=O)N2Cc3ccccc3C2)cc1 [Example 348, N-[4-(hexyloxy)phenyl]-1,3-dihydro-2H-isoindole-2-carboxamide] | 1.56 |
| O=C(NCCCCC1CCN(C(=O)c2ccccc2)CC1)N1Cc2ccccc2C1 [Example 349, N-[4-(1-benzoylpiperidin-4-yl)butyl]-1,3-dihydro-2H-isoindole-2-carboxamide] | 0.0022 |
| O=C(NCCCCC1CCN(C(=O)c2cccnc2)CC1)N1Cc2ccccc2C1 [Example 350, N-{4-[1-(pyridin-3-ylcarbonyl)piperidin-4-yl]butyl}-1,3-dihydro-2H-isoindole-2-carboxamide] | 0.00825 |
| O=C(NCCCCCCOc1ccc(Cl)cc1)N1Cc2ccccc2C1 [Example 351, N-[6-(4-chlorophenoxy)hexyl]-1,3-dihydro-2H-isoindole-2-carboxamide] | 0.064 |
| O=C(NCCCCC1CCNCC1)N1Cc2ccccc2C1 [Example 352, N-[4-(piperidin-4-yl)butyl]-1,3-dihydro-2H-isoindole-2-carboxamide] | 1.19 |
| O=C(NCCCCCCNC(=O)N1Cc2ccccc2C1)N1Cc2ccccc2C1 [Example 353, N,N′-hexane-1,6-diylbis(1,3-dihydro-2H-isoindole-2-carboxamide)] | 0.00763 |
| O=C(NCCCCc1ccccc1)N1Cc2ccccc2C1 [Example 354, N-(4-phenylbutyl)-1,3-dihydro-2H-isoindole-2-carboxamide] | 0.0405 |
| CCOC(=O)CCCCCNC(=O)N1Cc2ccccc2C1 [Example 355, ethyl 6-[(1,3-dihydro-2H-isoindol-2-ylcarbonyl)amino]hexanoate] | 0.124 |
| CCCCCCNC(=O)N1Cc2ccccc2C1 [Example 356, N-hexyl-1,3-dihydro-2H-isoindole-2-carboxamide] | 0.404 |
| O=C(NCCCc1ccccc1)N1Cc2ccccc2C1 [Example 357, N-(3-phenylpropyl)-1,3-dihydro-2H-isoindole-2-carboxamide] | 9.88 |

| SMILES | IC50 [µM] |
| --- | --- |
| CCCCCCCCNC(=O)N1Cc2ccccc2C1 [Example 358, N-octyl-1,3-dihydro-2H-isoindole-2-carboxamide] | 0.0711 |
| Cn1cc(NC(=O)CCCCCNC(=O)N2Cc3ccccc3C2)cn1 [Example 359, N-{6-[(1-methyl-1H-pyrazol-4-yl)amino]-6-oxohexyl}-1,3-dihydro-2H-isoindole-2-carboxamide] | 0.0881 |
| CNC(=O)CCCCCNC(=O)N1Cc2ccccc2C1 [Example 360, N-[6-(methylamino)-6-oxohexyl]-1,3-dihydro-2H-isoindole-2-carboxamide] | 0.239 |
| O=C(CCCCCNC(=O)N1Cc2ccccc2C1)NCCCc1ccccc1 [Example 361, N-{6-oxo-6-[(3-phenylpropyl)amino]hexyl}-1,3-dihydro-2H-isoindole-2-carboxamide] | 0.436 |
| CC(C)CCNC(=O)CCCCCNC(=O)N1Cc2ccccc2C1 [Example 362, N-{6-[(3-methylbutyl)amino]-6-oxohexyl}-1,3-dihydro-2H-isoindole-2-carboxamide] | 0.578 |
| O=C(CCNC(=O)N1Cc2ccccc2C1)NCCCc1ccccc1 [Example 363, N-{3-oxo-3-[(3-phenylpropyl)amino]propyl}-1,3-dihydro-2H-isoindole-2-carboxamide] | 2.04 |
| O=C(CCNC(=O)N1Cc2ccccc2C1)N1CCN(c2ccccn2)CC1 [Example 364, N-{3-oxo-3-[4-(pyridin-2-yl)piperazin-1-yl]propyl}-1,3-dihydro-2H-isoindole-2-carboxamide] | 6.48 |
| CC(C)CCNC(=O)CCNC(=O)N1Cc2ccccc2C1 [Example 365, N-{3-[(3-methylbutyl)amino]-3-oxopropyl}-1,3-dihydro-2H-isoindole-2-carboxamide] | 11.2 |
| CCCn1cc(-c2ccc(CNC(=O)N3Cc4ccccc4C3)cc2)cn1 [Example 366, N-[4-(1-propyl-1H-pyrazol-4-yl)benzyl]-1,3-dihydro-2H-isoindole-2-carboxamide] | 3.34 |
| CC(C)Cn1cc(-c2ccc(CNC(=O)N3Cc4ccccc4C3)cc2)cn1 [Example 367, N-[4-(1-isobutyl-1H-pyrazol-4-yl)benzyl]-1,3-dihydro-2H-isoindole-2-carboxamide] | 4.84 |
| O=C(Nc1ccc(C(=O)N2CCN(c3ccccn3)CC2)cn1)N1Cc2ccccc2C1 [Example 368, N-(5-{[4-(pyridin-2-yl)piperazin-1-yl]carbonyl}pyridin-2-yl)-1,3-dihydro-2H-isoindole-2-carboxamide] | 0.00373 |
| O=C(NCCCc1ccccc1)c1ccc(NC(=O)N2Cc3ccccc3C2)nc1 [Example 369, N-{5-[(3-phenylpropyl)carbamoyl]pyridin-2-yl}-1,3-dihydro-2H-isoindole-2-carboxamide] | 0.00656 |
| CC(C)CCNC(=O)c1ccc(NC(=O)N2Cc3ccccc3C2)nc1 [Example 370, N-{5-[(3-methylbutyl)carbamoyl]pyridin-2-yl}-1,3-dihydro-2H-isoindole-2-carboxamide] | 0.0075 |
| O=C(NCCCc1ccccc1)c1cnc(NC(=O)N2Cc3ccccc3C2)s1 [Example 371, N-{5-[(3-phenylpropyl)carbamoyl]-1,3-thiazol-2-yl}-1,3-dihydro-2H-isoindole-2-carboxamide] | 0.0395 |
| CC(C)CCNC(=O)c1cnc(NC(=O)N2Cc3ccccc3C2)s1 [Example 372, N-{5-[(3-methylbutyl)carbamoyl]-1,3-thiazol-2-yl}-1,3-dihydro-2H-isoindole-2-carboxamide] | 0.0535 |
| CCCNC(=O)c1ccc(NC(=O)N2Cc3ccc(F)cc3C2)cc1 [Example 373, 5-fluoro-N-[4-(propylcarbamoyl)phenyl]-1,3-dihydro-2H-isoindole-2-carboxamide] | 0.0234 |
| O=C(Nc1ccc(-c2cncc3ccccc23)cc1)N1Cc2ccccc2C1 [Example 375, N-[4-(isoquinolin-4-yl)phenyl]-1,3-dihydro-2H-isoindole-2-carboxamide] | 0.595 |
| O=C(Nc1ccc(-c2n[nH]c(=O)c3c2CCCC3)cc1)N1Cc2ccccc2C1 [Example 377, N-[4-(4-oxo-3,4,5,6,7,8-hexahydrophthalazin-1-yl)phenyl]-1,3-dihydro-2H-isoindole-2-carboxamide] | 0.105 |
| O=C(Nc1ccc(-c2c[nH]c(=O)c3ccccc23)cc1)N1Cc2ccc(CN3CCOCC3)cc2C1 [Example 381, 5-(morpholin-4-ylmethyl)-N-[4-(1-oxo-1,2-dihydroisoquinolin-4-yl)phenyl]-1,3-dihydro-2H-isoindole-2-carboxamide] | 0.547 |
| COc1ccc2c(c1)CN(C(=O)Nc1ccc(-c3c[nH]c(=O)c4ccccc34)cc1)C2 [Example 382, 5-methoxy-N-[4-(1-oxo-1,2-dihydroisoquinolin-4-yl)phenyl]-1,3-dihydro-2H-isoindole-2-carboxamide] | 0.257 |
| O=C1Cc2ccccc2C(c2ccc(NC(=O)N3Cc4ccccc4C3)cc2)=NN1 [Example 386, N-[4-(4-oxo-4,5-dihydro-3H-2,3-benzodiazepin-1-yl)phenyl]-1,3-dihydro-2H-isoindole-2-carboxamide] | 0.0707 |
